Test results as given in US12655461B2 (priority 2020, dated 2026).

Tested on: E. coli BW25113-Wt cells containing pCyn-v2-GFP
Assay: Azide biosensor cells (pCyn-v2-GFP) incubated with glucosyl azides, GFP fluorescence of cell lysate
Conditions: 4 hours incubation, after the first hour

## [N-]=[N+]=NC1(N=[N+]=[N-])O[C@H](CO)[C@@H](O)[C@H](O)[C@H]1O (some centres unmarked)
  change in GFP fluorescence after incubation with glucosyl azide: rapid increase in fluorescence

## [N-]=[N+]=N[C@@H]1[C@@H](O)[C@H](O)[C@@H](CO)O[C@H]1N=[N+]=[N-]
  change in GFP fluorescence after incubation with glucosyl azide: No change in fluorescence
